Experiment: Body weight, mortality and signs of overt toxicity in NCI-H526 implanted female nu/nu mice
Format: in vivo, mouse
Conditions: group mean
Description: In a xenograft tumor model of human small cell lung cancer, viable NCI-H526 stage E carcinoma; variant small cell lung cancer cells (ATCC CRL-5811), were subcutaneously (SC) implanted (1×10^6 cells with matrigel (1:0.8) in 0.2 mL/mouse) into the right flank of female nu/nu mice. Tumor implanted mice were divided into five treatment groups, each group containing eight animals, and test agent administrations were initiated one day after cell implantation (denoted as Day 1).
Female nu/nu nude, aged 6-7 weeks, were obtained from BioLasco Taiwan (under Charles River Laboratories Licensee) and used. The animals were housed in individually ventilated cages (IVC, 36 Mini Isolator system). The allocation for 5 animals was 27×20×14 in cm. All animals were maintained in a hygienic environment under controlled temperature (20-24° C.) and humidity (30-70%) with 12-hour light/dark cycle. Free access to standard lab diet [MFG (Oriental Yeast Co., Ltd., Japan)] and autoclaved tap water were granted. All aspects of this work including housing, experimentation, and animal disposal were performed in general accordance with the “Guide for the Care and Use of Laboratory Animals: Eighth Edition” (National Academies Press, Washington, D.C., 2011) in our AAALAC-accredited laboratory animal facility. In addition, the animal care and use protocol was reviewed and approved by the IACUC at Eurofins Panlabs Taiwan, Ltd.
The tumor volumes, body weights, mortality, and signs of overt toxicity were monitored and recorded twice weekly for 45 days. Tumor growth inhibition was calculated as T/C (treatment/control)×100%. A T/C value≤42% compared to that of the vehicle control group was considered significant anti-tumor activity. Two-way ANOVA followed by Bonferroni test was used to ascertain the statistically significant significance of groups compared to respective vehicle control (*p<0.05).

SMILES: CC[C@H](C)[C@@H]([C@@H](CC(=O)N1CCC[C@H]1[C@H](OC)[C@@H](C)C(=O)N[C@H](C)[C@@H](O)c1ccccc1)OC)N(C)C(=O)[C@@H](NC(=O)[C@@H](NC)C(C)C)C(C)C [MMAE, monomethyl auristatin E]
- Body Weight (g), Mean (Day 8, NCI-H526 xenograft, female nu/nu mice, OBI-999/OBI-888 10 mg/kg IV, MMAE 0.191 mg/kg IP, once weekly x 4): 24.5 g
- Body Weight (g), Mean (Day 11, NCI-H526 xenograft, female nu/nu mice, OBI-999/OBI-888 10 mg/kg IV, MMAE 0.191 mg/kg IP, once weekly x 4): 24.9 g
- Body Weight (g), Mean (Day 22, NCI-H526 xenograft, female nu/nu mice, OBI-999/OBI-888 10 mg/kg IV, MMAE 0.191 mg/kg IP, once weekly x 4): 25.5 g
- Body Weight (g), Mean (Day 25, NCI-H526 xenograft, female nu/nu mice, OBI-999/OBI-888 10 mg/kg IV, MMAE 0.191 mg/kg IP, once weekly x 4): 26.5 g
- Body Weight (g), Mean (Day 29, NCI-H526 xenograft, female nu/nu mice, OBI-999/OBI-888 10 mg/kg IV, MMAE 0.191 mg/kg IP, once weekly x 4): 27.6 g
- Body Weight (g), Mean (Day 36, NCI-H526 xenograft, female nu/nu mice, OBI-999/OBI-888 10 mg/kg IV, MMAE 0.191 mg/kg IP, once weekly x 4): 28.9 g
- Body Weight (g), Mean (Gr. 8, 0.191 mg/kg × 4 IP once weekly, Day 57): 26.4 g
- Body Weight (g), Mean (Gr. 8, 0.191 mg/kg × 4 IP once weekly, Day 60): 26.9 g
- Body Weight (g), Mean (Gr. 8, 0.191 mg/kg × 4 IP once weekly, Day 67): 27.3 g
- Body Weight (g), Mean (Gr. 8, 0.191 mg/kg × 4 IP once weekly, Day 70): 26.4 g
- Body Weight (g), Mean (Gr. 8, 0.191 mg/kg × 4 IP once weekly, Day 74): 26.6 g
- Body Weight (g), Mean (Gr. 8, 0.191 mg/kg × 4 IP once weekly, Day 78): 27.3 g
- Body Weight (g), Mean (Gr. 8, 0.191 mg/kg × 4 IP once weekly, Day 81): 26.9 g
- Body Weight (g), Mean (Gr. 8, 0.191 mg/kg × 4 IP once weekly, Day 85): 26.9 g
- Body Weight (g), Mean (Gr. 8, 0.191 mg/kg × 4 IP once weekly, Day 88): 27.1 g
- Body Weight (g), Mean (Gr. 8, 0.191 mg/kg × 4 IP once weekly, Day 91): 27.3 g
- Body Weight (g), Mean (Gr. 8, 0.191 mg/kg × 4 IP once weekly, Day 95): 27.4 g
- Body Weight (g), Mean (Gr. 8, 0.191 mg/kg × 4 IP once weekly, Day 98): 27.6 g
